The values below come from patent publication US5369120A, “Pharmaceutical composition of 7-((substituted)amino-8-((substituted)carbonyl)-(methylamino)-1-oxasp iro(4,5)decanes and L-dopa” (Warner-Lambert Company, priority 1993, dated 1994).

SMILES strings stand for the structures.

In experiment [1] the test system is rats rendered Parkinsonian by injection of reserpine. Briefly: locomotor activity and rigidity in reserpine-treated Parkinsonian rats. The experiment is classed as in vivo, rat. The conditions noted are these: reserpine (4 mg/kg) rats; Compound I 3.25 μg/kg intraperitoneal, subthreshold dose.
The subject of experiment [2] is kappa opioid. The experiment in a line: kappa opioid affinity (Ki) and μ/kappa selectivity.
The nature of experiment [3]: rat paw pressure test for analgesia. The note with it: iv.

Turning to `CN(C(=O)Cc1cccc2occc12)[C@H]1CC[C@@]2(CCCO2)C[C@@H]1N1CCCC1`, the Locomotor scores result in experiment [1] is “very low locomotor scores”. Besides, the μ/kappa ratio in experiment [2] is 798. In experiment [3], the “MPE50 in the rat paw pressure test for analgesia” value is reported as 0.030.
